Experiment [1] concerns HER2/Neu protein in SK-OV-3 cells. In words: Hsp90 Client Protein Degradation Assay. Particulars: read-out: Client Protein IC50, 50% degradation of HER2/Neu protein, overnight.
Experiment [2] relates to Hsp90 (luciferase refolding, cancer cell lysate). In words: Luciferase Refolding Assay. Conditions: read-out: Luciferase IC50; inhibition of luciferase refolding by Hsp90.
In experiment [3] the target is Hsp90α Protein (Homo sapiens, UniProt P07900). Description: Hsp90 CE Competitive Binding Assay (displacement of fluorescein-labelled geldanamycin). Conditions: read-out: CE IC50; Table 14; inhibition of binding of labeled geldanamycin to Hsp90.
Experiment [4] relates to Human cancer cell lines. Description: Cancer-Derived Cell Line Growth Inhibition Assays. Particulars: read-out: Cell Growth Inhibition IC50; 3 days, Cell Titer Blue.

Molecules are shown by their SMILES. Only a part of the results on these compounds is given; other tests are left out.

For the molecule `CC(C)N(CCCOS(N)(=O)=O)CCn1c(Cc2cc3c(cc2I)OCO3)nc2c(N)nc(F)nc21`, the IC50 is less than 50 µM in experiment [1], less than 1 µM in experiment [2], less than 10 µM in experiment [3] and less than 100 µM in experiment [4].

(Values after patent publication US20080096903A1, “SULFAMOYL-CONTAINING DERIVATIVES AND USES THEREOF” (Wyeth, priority 2006, published 2008).)
